Experimental data taken from patent US12194014B2, “Platinum-based amphiphile prodrugs” (NANOMED HOLDINGS PTY LTD, priority 2018, dated 2025).

What was measured:
[1] = Mesophase behaviour by polarized optical microscopy (POM); type: physicochemical; details: for POM observation on exposure to water: 25° C. and 37° C.; for Appearance of the Lyotropic phase at excess water (25° C.-50° C.): POM, equilibration 1 h
Method: Polarized Optical Microscopy (POM): Samples used for Polarized Optical Microscopy (POM) were prepared by placing a small amount of prodrug amphiphile on a microscope slide and covered with a cover slip. Water was placed on the edges of the cover slip and allowed to flow into the sample by capillary action. The microscope slide was placed in a Linkam PE94 hot stage (Linkam Scientific Instruments Ltd. Surrey, England) and heated at 3° C./min between room temperature and 50° C. […] Images were captured with a Nikon DS-Ri-1 camera. All images were taken at 100× magnification.
The formation of lyotropic mesophases is based on the interaction of the prodrug amphiphile with water. Polarized optical microscopy was used to study the liquid crystalline or crystalline structures of the prodrug amphiphiles. This method was used as a preliminary and qualitative investigation to observe the morphological changes of the amphiphile as well as to predict the structural changes of the mesophases which may form upon hydration with water. For each prodrug amphiphile, a small amount of the neat and dry sample was placed on a microscope slide and covered with a cover slip. Water was placed on the edges of the cover slip to allow to flow into the sample by capillary action. Images were captured at 25° C. before and after the addition of water and at 37° C. after exposure to water. 37° C. was selected due to its physiological relevance. […]

[2] = SAXS of neat and hydrated amphiphiles (phase, lattice parameter); type: physicochemical; details: for lattice parameter, neat non-hydrated: temperature not printed
Method: SAXS analyses of the bulk and lyotropic phases of the amphiphiles were performed on a Bruker NanoSTAR laboratory SAXS instrument (Brucker AXS, Kalsruhe, Germany).
(§1) The equilibrated lyotropic phases were placed into a demountable button sample cell. For the analysis of the dispersions, a multi-capillary holder was used. Button cells and capillary holder interchangeably fit into a block setup that was temperature-controlled with a Peltier heater-cooler system. 2D scattering images were radially averaged to conventional 1 D scattering plots and as a function of the q value (Å^−1) where q is the length of the scattering vector which was calculated using the formula q=(4π/λ) sin(θ/2), where λ is the wavelength and θ is the scattering angle.
Small angle X-ray scattering patterns of emulsions and liposomes display large broad peaks while liquid crystalline phases of highly ordered nanostructured particles such as cubosomes and hexosomes display distinct sharp peaks. The relative positions of the peaks (“spacing”) allows for the elucidation of the symmetry of the structure. The interplanar distance (d) between two reflecting planes may be calculated using the formula d=(2π)/q, where q is the absolute position of the peak. This, in turn allows for the calculation of the lattice parameter (a), the size of the unit cell, to be calculated.

[3] = SAXS / synchrotron SAXS of dispersed nanoparticles; type: physicochemical; details: dispersion with PEG stabiliser
Method: as §1
Small angle X-ray scattering patterns of emulsions and liposomes display large broad peaks while liquid crystalline phases of highly ordered nanostructured particles such as cubosomes and hexosomes display distinct sharp peaks. The relative positions of the peaks (“spacing”) allows for the elucidation of the symmetry of the structure. The interplanar distance (d) between two reflecting planes may be calculated using the formula d=(2π)/q, where q is the absolute position of the peak. This, in turn allows for the calculation of the lattice parameter (a), the size of the unit cell, to be calculated. […]

[4] = Reduction kinetics of Pt (IV) prodrug nanoparticles with ascorbic acid (LC-MS); type: in vitro ADME; details: ascorbic acid as reducing agent, up to 24 h
Method: The reducing agent was applied at concentrations corresponding to those found in the living cells' environment, e.g. 1 mM ascorbic acid or 2 mM glutathione (GSH).
Dispersed nanoparticles of Pt (IV) prodrug amphiphiles were mixed with GSH, ascorbic acid or their combination. The ratios of the reducing agents to platinum prodrugs were 10:1 or 50:1 for ascorbic acid and 20:1 for GSH. The reduction kinetics was analysed by LC-MS via monitoring the peaks related to each prodrug amphiphile. The prodrugs were detected by negative ions optimised for each platinum amphiphile. The reduction kinetics was plotted as the percentage of the area under the peak of Pt (IV)-prodrug compared to the peak before the addition of the reducing agent against the time of incubation. At each time point 10 μl of a sample withdrawn from the reaction solution was injected directly into a Phenomenex C8 150 mm×2 mm 5 μm Luna column (Phenomenex, Australia). A 100% Methanol solution was used as the mobile phase with a flow rate of 0.5 ml/min for 8 minutes. The sample after the column separation was eluted to the ESI source. […] The samples were well maintained at a temperature of 37° C. during the entire measurement by incubation in the temperature-controlled auto-sampler. Data was acquired and processed with Xcalibur Quan chromatography software.

Substance	POM observation on exposure to water [1]	POM observation on exposure to water ([1]; listed as CP-bis(suc-Lys(oleoyl) ethanolamide))	lattice parameter, hydrated ([2]; excess water, 25° C.) [Å]	phase, hydrated ([2]; excess water, 25° C.)	lattice parameter, hydrated ([2]; excess water, 37° C.) [Å]	phase, hydrated ([2]; excess water, 37° C.)	lattice parameter, hydrated ([2]; excess water, temperature not given) [Å]	lattice parameter, hydrated ([2]; heated to 37° C.) [Å^−1]	lattice parameter, neat non-hydrated ([2]; listed as CP-bis (suc-Lys(oleoyl)-ethanolamide)) [Å]	lattice parameter, neat non-hydrated ([2]; listed as CP-bis (suc-lys (oleoyl) ethanolamide)) [Å]	lattice parameter of dispersed nanoparticles [3] [Å]	structure of dispersed nanoparticles [3]	Appearance of the Lyotropic phase at excess water (25° C.-50° C.) [1]	maximum reduction [4] [%]
(cis,cis,trans-(PtCl2(NH3)2) [(Nα-succinoyl)-(Nε-oleoyl)-lysinoyl-ethanolamide)]2 [CP-bis (suc-lys(oleoyl)-ethanolamide)]	dark band at the boundary between the amphiphile and water suggesting the formation of possible cubic phases	formed a dark band when exposed to water, possibly due to the formation of a cubic phase	121.38 ± 0.5	la3d	121.1 ± 0.5	la3d	121.38±0.5	121.1±0.5	47.0±0.5	47.0 ± 0.5	~121.4	cubosomes with la3d symmetry		
cis, trans [Oxaliplatin-bis (myristoyl), cis, trans [Pt ((1R, 2R)-1,2 cyclohexanediamine-N,N′) (oxalate(2-)O,O′) (myristoyl)2]]													No distinct mesophase	80
cis, trans [Oxaliplatin-bis (suc-PEG3-myristoyl), cis, trans [Pt ((1R, 2R)-1,2 cyclohexanediamine-N,N′) (oxalate(2-)O,O′) (succinoylamidetriethyleneglycol-myristoyl)2]]													Lamellar	
